pEC50: −log10 of the molar value.
Biological target: T1, P2Y1 receptor (Homo sapiens, UniProt P47900)
T1 construct: hexahistidine; made in house; host or cells: baculovirus / Sf9 insect cells are named only as a preferred embodiment
Assay: steady state GTP hydrolysis by purified P2Y1-R reconstituted with Gα11 and Gβ1γ2 in proteoliposomes
Format: biochemical
Settings: 100 nM RGS4, FIG. 2A, read-out: EC50 of 2MeSADP for GTP hydrolysis
Protocol: Purified human P2Y1-R, Gα11, and Gβ1y2 were reconstituted in phospholipid vesicles.
In a glass tube, the following lipid solutions, which are made by solubilizing the lipids in chloroform, are combined: 11 μl PE (10 mg/ml), 7 μl PS (10 mg/ml), 4 μl cholesteryl hemisuccinate (2 mM). The mixture is dried under a stream of N2 or argon to prevent oxidation. The lipids are then dissolved in a buffer containing deoxycholate at 0.4% and sonicated to ensure complete solubilization. Proteins are added sequentially: 50 pmol of the appropriate G protein α subunit, 150 pmol Gβγ and 15 pmol of P2Y receptor. The mixture is passed over a sizing column to isolate the vesicles from the single components and the detergent. […]
In a steady state embodiment of the present invention, vesicles are combined with agonists, GAP proteins γ-[^32P] labeled GTP, all in an appropriate buffer system. […] P2Y receptor-promoted activity is measured as released ^32P, which is separated from [γ-^32P]GTP after the assay is halted by transfer to ice and addition of ice cold 5% slurry or activated charcoal in 20 mM phosphoric acid. […]
The P2Y1 receptor was expressed, purified and reconstituted into vesicles as described herein. GTP hydrolysis was measured by incubation of vesicles with 2 μM [γ^32P]GTP and quantitation of released [^32P]Pi.

Sequences of proteins named here, by UniProt entry; tags and fusion partners are left off. A change or cut given only in a name is not applied to a line headed by its entry.
UniProt P47900: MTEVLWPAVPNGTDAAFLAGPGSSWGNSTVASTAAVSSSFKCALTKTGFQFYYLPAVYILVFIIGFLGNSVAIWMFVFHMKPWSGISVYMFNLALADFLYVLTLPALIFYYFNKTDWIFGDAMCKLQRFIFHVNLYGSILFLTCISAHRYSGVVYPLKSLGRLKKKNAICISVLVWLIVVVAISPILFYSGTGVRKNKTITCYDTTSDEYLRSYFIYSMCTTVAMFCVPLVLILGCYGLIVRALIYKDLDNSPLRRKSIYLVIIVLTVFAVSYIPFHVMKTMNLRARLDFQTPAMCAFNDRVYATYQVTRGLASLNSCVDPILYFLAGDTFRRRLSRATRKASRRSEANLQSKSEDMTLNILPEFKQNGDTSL

pEC50: 6.66
Substance: 2-methylthioadenosine 5′-diphosphate [2MeSADP]

From patent US20030175810A1, “Assay method and system for identification of P2Y receptor agonists and antagonists” (priority 2000, published 2003)
